Reference: US20030215458A1 (published 2003)

Protein sequences, listed by entry. Tags and fused reporters are not part of them. Residues count along the entry.
UniProt P01887, 21-119: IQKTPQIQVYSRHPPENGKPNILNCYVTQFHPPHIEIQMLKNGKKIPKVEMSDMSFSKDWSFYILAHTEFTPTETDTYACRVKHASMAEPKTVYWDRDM

Assays:
[1] = target: T1, mouse B6 class I antigens (D^b or K^b molecules on the surface of RMA-S cells) (mouse, UniProt P01887 21-119); assay: RMA-S cells incubated with peptide (25 ug/ml), stained with FITC anti-D^b or anti-K^b, flow cytometry
[2] = target: T1, mouse B6 class I antigens (D^b or K^b …); assay: binding of 9-mer peptides within p117-139 to mouse B6 (H-2^b) class I; RMA-S cell assay, flow cytometry

RMFPNAPYL [WT1 peptide p126-134 (RMFPNAPYL)]
Binding Affinity to Mouse MHC Class I (% increase of D^b or K^b on RMA-S cells) [1]: 0.9% | Binding Affinity to Mouse MHC Class I (%) [2]: 79%
